Experimental data published in US20050009787A1, “Micronutrient phosphates as dietary and health supplements” (priority 2001, published 2005).

Experiment: Stability of tocopheryl phosphate arginine complex in a beverage (pH, turbidity, degradation)
Format: physicochemical
Description: In this example, the stability of the tocopheryl phosphate arginine complex (TP) in a beverage was investigated.
Tocopheryl phosphate arginine complex (equivalent α-tocopherol content of 50 mg/500 ml) was added to commercially available Musashi drinks (Musashi, Australia) a blue variety and an orange variety.
A 2% (w/v) tocopheryl phosphate arginine complex stock solution was prepared in water and filter-sterilised using a Millipore Millex-GP 25 mm, diameter 0.22 μm filter and sterile hypodermic syringe. Four ml was added to each 500 ml bottle using sterile conditions. Three treatment groups were used for each drink: 4° C., 37° C. and room temperature (RT). The drinks were monitored for bacterial growth and contamination on a weekly basis, both visually, and by plating a sample onto LB agar plates, which were grown for 48 hours at 37° C.

## tocopheryl phosphate arginine complex
Blue Musashi drink with TP (50 mg α-tocopherol equivalent/500 ml), 4° C.
  pH: 4.34
Blue Musashi drink with TP, 37° C.
  pH: 4.31
Blue Musashi drink with TP, RT
  pH: 4.16
Orange Musashi drink with TP, 4° C.
  pH: 3.42
Orange Musashi drink with TP, 37° C.
  pH: 3.29
Orange Musashi drink with TP, RT
  pH: 3.28
